Data as given in ChEMBL document CHEMBL5576054, “Lead compound profiling for small molecule inhibitors of the REV1-CT/RIR Translesion synthesis Protein-Protein interaction” (Bioorg Med Chem, 2024).
Activity calls are given as the source filed them. The rule behind the calls is not given here.

Target: T1, DNA repair protein REV1 (Homo sapiens) (UniProt Q9UBZ9)
T1 sequence (whole entry): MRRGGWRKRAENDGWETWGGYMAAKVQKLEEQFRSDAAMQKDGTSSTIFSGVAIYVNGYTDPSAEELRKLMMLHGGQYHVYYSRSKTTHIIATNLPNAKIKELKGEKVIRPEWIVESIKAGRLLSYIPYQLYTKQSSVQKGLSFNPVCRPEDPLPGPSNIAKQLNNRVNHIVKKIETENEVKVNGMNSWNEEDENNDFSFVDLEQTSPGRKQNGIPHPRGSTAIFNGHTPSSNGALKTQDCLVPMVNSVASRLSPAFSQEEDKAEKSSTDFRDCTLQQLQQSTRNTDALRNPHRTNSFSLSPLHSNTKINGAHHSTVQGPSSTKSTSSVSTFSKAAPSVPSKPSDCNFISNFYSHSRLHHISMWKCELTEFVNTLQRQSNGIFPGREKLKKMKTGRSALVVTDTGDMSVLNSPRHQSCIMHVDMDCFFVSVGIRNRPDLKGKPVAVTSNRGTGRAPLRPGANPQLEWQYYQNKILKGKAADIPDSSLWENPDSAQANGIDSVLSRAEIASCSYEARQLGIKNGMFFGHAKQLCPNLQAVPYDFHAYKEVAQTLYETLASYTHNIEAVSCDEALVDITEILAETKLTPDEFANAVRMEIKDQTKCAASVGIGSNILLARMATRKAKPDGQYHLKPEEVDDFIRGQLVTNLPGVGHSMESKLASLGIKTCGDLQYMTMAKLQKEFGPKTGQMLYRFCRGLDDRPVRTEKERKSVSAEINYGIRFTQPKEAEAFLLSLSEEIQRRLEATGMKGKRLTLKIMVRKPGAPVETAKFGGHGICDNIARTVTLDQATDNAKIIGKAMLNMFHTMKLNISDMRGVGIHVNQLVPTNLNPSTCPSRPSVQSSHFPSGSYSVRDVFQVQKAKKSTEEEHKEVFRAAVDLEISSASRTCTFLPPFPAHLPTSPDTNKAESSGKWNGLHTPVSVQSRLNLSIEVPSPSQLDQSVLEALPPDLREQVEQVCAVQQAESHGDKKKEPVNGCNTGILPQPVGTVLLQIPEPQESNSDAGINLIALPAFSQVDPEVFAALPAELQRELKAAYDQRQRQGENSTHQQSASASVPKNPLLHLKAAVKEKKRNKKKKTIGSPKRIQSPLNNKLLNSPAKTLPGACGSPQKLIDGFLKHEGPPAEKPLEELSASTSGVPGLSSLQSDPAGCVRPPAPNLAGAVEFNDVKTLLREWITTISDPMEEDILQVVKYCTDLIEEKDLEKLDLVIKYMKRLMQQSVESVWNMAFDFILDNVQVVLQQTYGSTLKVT
Assay: Binding affinity to C-terminal human REV-1 incubated for 30 mins by MST assay

| SMILES | Activity |
| --- | --- |
| CC(=O)C(C)n1c(CN2CCN(c3cccc(Cl)c3)CC2)nc2c1c(=O)n(C)c(=O)n2C (stereo not drawn) | inactive |
| CCCCc1ccc(-n2nnc(C(=O)N(C)C3CCS(=O)(=O)C3)c2C)cc1 (stereo not drawn) | inactive |
| Cc1ccc(C(=O)N2CCN(c3ccccc3)CC2)cc1S(=O)(=O)N1CCOCC1 | inactive |
